Experimental data published in publication PMC8065475, “Structure and Dynamics of an Archeal Monoglyceride Lipase from Palaeococcus ferrophilus as Revealed by Crystallography and In Silico Analysis” (2021).

Sequences of proteins named here, by UniProt entry; tags and fusion partners are left off. Residues count along the entry.
UniProt A0A6I8WFT7, 1-260 limits assumed: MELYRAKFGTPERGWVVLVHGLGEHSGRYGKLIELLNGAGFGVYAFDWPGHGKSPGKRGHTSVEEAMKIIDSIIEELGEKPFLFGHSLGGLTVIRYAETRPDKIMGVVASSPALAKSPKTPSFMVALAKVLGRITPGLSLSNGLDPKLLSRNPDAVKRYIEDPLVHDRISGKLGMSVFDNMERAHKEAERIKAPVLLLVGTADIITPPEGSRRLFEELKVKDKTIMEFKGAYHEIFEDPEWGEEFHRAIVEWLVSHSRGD

How the values were obtained:
[1] = target: T1, PFL (Palaeococcus ferrophilus lipase / monoglyceride lipase, previously annotated as lysophospholipase) (Palaeococcus ferrophilus, UniProt A0A6I8WFT7); assay: p-nitrophenyl ester hydrolysis, colorimetric; conditions: substrate p-nitrophenyl acetate 1 mM; Hepes 100 mM pH 8; 30 or 70 °C (not stated which); covalent
[2] = target: T1, PFL (Palaeococcus ferrophilus lipase / monoglyceride lipase, previously annotated as lysophospholipase); assay: thermofluor (SYPRO Orange); conditions: MAFP 50 µM, LDAO 0.1%, Hepes 100 mM pH 8; absolute Tm, not a shift; covalent
Source text: thermofluor (SYPRO Orange) on PFL (Palaeococcus ferrophilus lipase / monoglyceride lipase, previously annotated as lysophospholipase)

Q: With `CCCCC/C=C\C/C=C\C/C=C\C/C=C\CCCCP(=O)(F)OC` (centres unmarked) as the compound, how does the pIC50 [1] read?
A: 7.82

Q: And the MAFP [2]?
A: 83.5 ± 1.3 °C
